Test results as given in patent publication US20130096170A1 (priority 2011, published 2013).
Like-named read-outs stand apart in the source and are kept apart here.

Tested on: infants 1 to 24 months postoperative from cardiac surgery
Details: for UMSS, Mean / UMSS, Median: ITT; for UMSS Awake and alert, number of patients / UMSS Deeply sedated/Deep sleep, number of patients / UMSS Minimally sedated/Sleepy, number of patients / UMSS Moderately sedated/Somnolent, number of patients / UMSS Unarousable, number of patients: N = 12, ITT
[1] = 4 to 6 hours after start of infusion, High Dose (1.0 μg/kg bolus, 0.75 μg/kg/hour infusion)
[2] = 4 to 6 hours after start of infusion, Moderate Dose (0.7 μg/kg bolus, 0.5 μg/kg/hour infusion)
[3] = 12 Hours after end of infusion, Low Dose (0.35 μg/kg bolus, 0.25 μg/kg/hour infusion)
[4] = 15 to 18 hours after end of infusion, Moderate Dose (0.7 μg/kg bolus, 0.5 μg/kg/hour infusion)
[5] = 30-15 min prior to end of infusion, Moderate Dose (0.7 μg/kg bolus, 0.5 μg/kg/hour infusion)
[6] = 15 min after end of infusion, High Dose (1.0 μg/kg bolus, 0.75 μg/kg/hour infusion)
[7] = 15 min after end of infusion, Low Dose (0.35 μg/kg bolus, 0.25 μg/kg/hour infusion)
[8] = 15 min after end of infusion, Moderate Dose (0.7 μg/kg bolus, 0.5 μg/kg/hour infusion)
[9] = 30 min after start of infusion, High Dose (1.0 μg/kg bolus, 0.75 μg/kg/hour infusion)
[10] = 30 min after start of infusion, Low Dose (0.35 μg/kg bolus, 0.25 μg/kg/hour infusion)
[11] = 30 min after start of infusion, Moderate Dose (0.7 μg/kg bolus, 0.5 μg/kg/hour infusion)
[12] = 30 minutes after end of infusion, High Dose (1.0 μg/kg bolus, 0.75 μg/kg/hour infusion)
[13] = 60 min after end of infusion, High Dose (1.0 μg/kg bolus, 0.75 μg/kg/hour infusion)
[14] = 60 min after end of infusion, Low Dose (0.35 μg/kg bolus, 0.25 μg/kg/hour infusion)
[15] = 60 min after start of infusion, High Dose (1.0 μg/kg bolus, 0.75 μg/kg/hour infusion)
[16] = 60 min after start of infusion, Moderate Dose (0.7 μg/kg bolus, 0.5 μg/kg/hour infusion)
[17] = 2 hours after end of infusion, High Dose (1.0 μg/kg bolus, 0.75 μg/kg/hour infusion)
[18] = 2 hours after end of infusion, Low Dose (0.35 μg/kg bolus, 0.25 μg/kg/hour infusion)
[19] = 2 hours after end of infusion, Moderate Dose (0.7 μg/kg bolus, 0.5 μg/kg/hour infusion)
[20] = 2 hours after start of infusion, Moderate Dose (0.7 μg/kg bolus, 0.5 μg/kg/hour infusion)
[21] = 4 hours after end of infusion, High Dose (1.0 μg/kg bolus, 0.75 μg/kg/hour infusion)
[22] = 4 hours after end of infusion, Low Dose (0.35 μg/kg bolus, 0.25 μg/kg/hour infusion)
[23] = 4 hours after end of infusion, Moderate Dose (0.7 μg/kg bolus, 0.5 μg/kg/hour infusion)
[24] = 8 hours after end of infusion, High Dose (1.0 μg/kg bolus, 0.75 μg/kg/hour infusion)
[25] = 8 hours after end of infusion, Moderate Dose (0.7 μg/kg bolus, 0.5 μg/kg/hour infusion)
[26] = 12 hours after start of infusion, Low Dose (0.35 μg/kg bolus, 0.25 μg/kg/hour infusion)
[27] = End of bolus, Low Dose (0.35 μg/kg bolus, 0.25 μg/kg/hour infusion)
[28] = Post Infusion Hour 1, High dose (1.0 μg/kg bolus, 0.75 μg/kg/hour infusion)
[29] = Post Infusion Hour 1, Low dose (0.35 μg/kg bolus, 0.25 μg/kg/hour infusion)
[30] = Post Infusion Hour 1, Moderate dose (0.7 μg/kg bolus, 0.5 μg/kg/hour infusion)
[31] = Post Infusion Hour 3, High dose (1.0 μg/kg bolus, 0.75 μg/kg/hour infusion)
[32] = Post Infusion Hour 3, Low dose (0.35 μg/kg bolus, 0.25 μg/kg/hour infusion)
[33] = Post Infusion Hour 3, Moderate dose (0.7 μg/kg bolus, 0.5 μg/kg/hour infusion)
[34] = Post Infusion Hour 6, High dose (1.0 μg/kg bolus, 0.75 μg/kg/hour infusion)
[35] = Post Infusion Hour 6, Low dose (0.35 μg/kg bolus, 0.25 μg/kg/hour infusion)
[36] = Post Infusion Hour 6, Moderate dose (0.7 μg/kg bolus, 0.5 μg/kg/hour infusion)
[37] = Post Infusion Hour 10, High dose (1.0 μg/kg bolus, 0.75 μg/kg/hour infusion)

Compound: Cc1cccc([C@H](C)c2cnc[nH]2)c1C [dexmedetomidine]
- UMSS, Mean [1]: 2.4
- UMSS, Median [1]: 2.0
- UMSS, Mean [2]: 1.6
- UMSS, Median [2]: 2.0
- UMSS, Mean [3]: 1.0
- UMSS, Median [3]: 1.0
- UMSS, Mean (12 Hours after end of infusion, Moderate Dose (0.7 μg/kg bolus, 0.5 μg/kg/hour infusion)): 1.0
- UMSS, Mean [4]: 0
- UMSS, Median [4]: 0.0
- UMSS, Median (30-15 min prior to end of infusion, High Dose (1.0 μg/kg bolus, 0.75 μg/kg/hour infusion)): 2.0
- UMSS, Mean [5]: 1.6
- UMSS, Median [5]: 2.0
- UMSS, Mean [6]: 2.6
- UMSS, Median [6]: 3.0
- UMSS, Mean [7]: 3.0
- UMSS, Median [7]: 3.0
- UMSS, Mean [8]: 1.7
- UMSS, Median [8]: 1.0
- UMSS, Mean [9]: 3.8
- UMSS, Median [9]: 4.0
- UMSS, Mean [10]: 3.5
- UMSS, Median [10]: 4.0
- UMSS, Mean [11]: 3.5
- UMSS, Median [11]: 4.0
- UMSS, Mean [12]: 2.0
- UMSS, Median [12]: 2.0
- UMSS, Median (30 minutes after end of infusion, Low Dose (0.35 μg/kg bolus, 0.25 μg/kg/hour infusion)): 2.0
- UMSS, Mean [13]: 1.6
- UMSS, Median [13]: 2.0
- UMSS, Mean [14]: 0.8
- UMSS, Median [14]: 1.0
- UMSS, Mean (60 min after end of infusion, Moderate Dose (0.7 μg/kg bolus, 0.5 μg/kg/hour infusion)): 1.7
- UMSS, Mean [15]: 3.4
- UMSS, Median [15]: 4.0
- UMSS, Mean [16]: 3.8
- UMSS, Median [16]: 4.0
- UMSS, Mean [17]: 1.3
- UMSS, Median [17]: 1.0
- UMSS, Mean [18]: 1.8
- UMSS, Median [18]: 2.0
- UMSS, Mean [19]: 1.1
- UMSS, Median [19]: 1.0
- UMSS, Median (2 hours after start of infusion, High Dose (1.0 μg/kg bolus, 0.75 μg/kg/hour infusion)): 3.0
- UMSS, Mean [20]: 3.4
- UMSS, Median [20]: 4.0
- UMSS, Mean [21]: 1.3
- UMSS, Median [21]: 1.0
- UMSS, Mean [22]: 1.1
- UMSS, Median [22]: 1.0
- UMSS, Mean [23]: 0.8
- UMSS, Median [23]: 0.0
- UMSS, Median (6 hours after start of infusion, Low Dose (0.35 μg/kg bolus, 0.25 μg/kg/hour infusion)): 2.0
- UMSS, Mean [24]: 0.4
- UMSS, Median [24]: 0.0
- UMSS, Mean (8 hours after end of infusion, Low Dose (0.35 μg/kg bolus, 0.25 μg/kg/hour infusion)): 1.2
- UMSS, Mean [25]: 1.0
- UMSS, Median [25]: 1.0
- UMSS, Mean [26]: 2.0
- UMSS, Median [26]: 2.0
- UMSS, Mean [27]: 3.7
- UMSS, Median [27]: 4.0
- UMSS, Median (End of infusion, Low Dose (0.35 μg/kg bolus, 0.25 μg/kg/hour infusion)): 2.0
- UMSS Awake and alert, number of patients [28]: 0 patients
- UMSS Deeply sedated/Deep sleep, number of patients [28]: 1 patients
- UMSS Minimally sedated/Sleepy, number of patients [28]: 0 patients
- UMSS Moderately sedated/Somnolent, number of patients [28]: 2 patients
- UMSS Unarousable, number of patients [28]: 8 patients
- UMSS Awake and alert, number of patients [29]: 0 patients
- UMSS Deeply sedated/Deep sleep, number of patients [29]: 1 patients
- UMSS Minimally sedated/Sleepy, number of patients [29]: 1 patients
- UMSS Moderately sedated/Somnolent, number of patients [29]: 1 patients
- UMSS Unarousable, number of patients [29]: 9 patients
- UMSS Awake and alert, number of patients [30]: 0 patients
- UMSS Deeply sedated/Deep sleep, number of patients [30]: 3 patients
- UMSS Minimally sedated/Sleepy, number of patients [30]: 0 patients
- UMSS Moderately sedated/Somnolent, number of patients [30]: 0 patients
- UMSS Unarousable, number of patients [30]: 9 patients
- UMSS Awake and alert, number of patients [31]: 0 patients
- UMSS Deeply sedated/Deep sleep, number of patients [31]: 2 patients
- UMSS Minimally sedated/Sleepy, number of patients [31]: 1 patients
- UMSS Moderately sedated/Somnolent, number of patients [31]: 4 patients
- UMSS Unarousable, number of patients [31]: 4 patients
- UMSS Awake and alert, number of patients [32]: 0 patients
- UMSS Deeply sedated/Deep sleep, number of patients [32]: 7 patients
- UMSS Minimally sedated/Sleepy, number of patients [32]: 2 patients
- UMSS Moderately sedated/Somnolent, number of patients [32]: 3 patients
- UMSS Unarousable, number of patients [32]: 0 patients
- UMSS Awake and alert, number of patients [33]: 0 patients
- UMSS Deeply sedated/Deep sleep, number of patients [33]: 3 patients
- UMSS Minimally sedated/Sleepy, number of patients [33]: 2 patients
- UMSS Moderately sedated/Somnolent, number of patients [33]: 2 patients
- UMSS Unarousable, number of patients [33]: 5 patients
- UMSS Awake and alert, number of patients [34]: 1 patients
- UMSS Deeply sedated/Deep sleep, number of patients [34]: 2 patients
- UMSS Minimally sedated/Sleepy, number of patients [34]: 0 patients
- UMSS Moderately sedated/Somnolent, number of patients [34]: 6 patients
- UMSS Unarousable, number of patients [34]: 1 patients
- UMSS Awake and alert, number of patients [35]: 0 patients
- UMSS Deeply sedated/Deep sleep, number of patients [35]: 1 patients
- UMSS Minimally sedated/Sleepy, number of patients [35]: 2 patients
- UMSS Moderately sedated/Somnolent, number of patients [35]: 7 patients
- UMSS Unarousable, number of patients [35]: 1 patients
- UMSS Awake and alert, number of patients [36]: 1 patients
- UMSS Deeply sedated/Deep sleep, number of patients [36]: 2 patients
- UMSS Minimally sedated/Sleepy, number of patients [36]: 3 patients
- UMSS Moderately sedated/Somnolent, number of patients [36]: 5 patients
- UMSS Unarousable, number of patients [36]: 1 patients
- UMSS Awake and alert, number of patients [37]: 3 patients
- UMSS Deeply sedated/Deep sleep, number of patients [37]: 3 patients
- UMSS Minimally sedated/Sleepy, number of patients [37]: 2 patients
- UMSS Moderately sedated/Somnolent, number of patients [37]: 1 patients
- UMSS Unarousable, number of patients [37]: 0 patients
- UMSS Awake and alert, number of patients (Post Infusion Hour 10, Low dose (0.35 μg/kg bolus, 0.25 μg/kg/hour infusion)): 3 patients
